From article PMC7858072 (mBio, 2021) come the findings set out here.

Structures are written as SMILES.

For this assay, the target named is T1, FhtR (MBP-FhtR) (Enterococcus faecalis, UniProt A0ACD6T9Y8).
T1 construct: gene OG1RF_10525
The following applies: MBP fusion; 1:1 stoichiometry by absorbance at 407 nm; non-covalent, ferric high-spin pentacoordinate.

By Kd is commonly meant the free concentration of one partner at which half of the binding sites on the other are occupied at equilibrium, for simple one-to-one binding. Low readings indicate higher affinity, high ones lower affinity. Turning to `C=CC1=C(C)C2=Cc3c(C=C)c(C)c4[n]3[Fe]([Cl])[n]3c(c(C)c(CCC(=O)O)c3=CC3=NC(=C4)C(C)=C3CCC(=O)O)=CC1=N2` [hemin], the Kd was determined as 310 nM.
